From ChEMBL document CHEMBL1157120, “The identification of indacaterol as an ultralong-acting inhaled beta2-adrenoceptor agonist” (J Med Chem, 2010)

Chains of the proteins cited; added tags and fusions are not shown.
UniProt Q8K4Z4, whole entry: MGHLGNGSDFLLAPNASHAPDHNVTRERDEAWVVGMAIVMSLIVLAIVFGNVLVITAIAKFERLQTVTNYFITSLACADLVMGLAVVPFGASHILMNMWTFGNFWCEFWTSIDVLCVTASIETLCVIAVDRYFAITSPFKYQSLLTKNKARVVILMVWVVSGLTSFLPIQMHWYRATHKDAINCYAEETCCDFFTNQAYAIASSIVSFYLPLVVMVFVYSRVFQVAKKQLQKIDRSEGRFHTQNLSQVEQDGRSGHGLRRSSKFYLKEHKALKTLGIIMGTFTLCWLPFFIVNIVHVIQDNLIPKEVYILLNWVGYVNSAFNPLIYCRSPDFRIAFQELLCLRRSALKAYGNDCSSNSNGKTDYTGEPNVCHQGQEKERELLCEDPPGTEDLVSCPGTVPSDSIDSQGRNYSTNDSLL

Tests used:
[1] = target: Beta-2 adrenergic receptor (Cavia porcellus, UniProt Q8K4Z4)
Cavia porcellus = species on record: Cavia porcellus; assay: Inhibition of serotonin-induced bronchoconstriction in guinea pig assessed as intrinsic duration of bronchodilatory activity at ED80

| IC50 [1] | Compound | Time (Cavia porcellus) |
| --- | --- | --- |
| 17 nM | CC(C)(C)NCC(O)c1ccc(O)c(CO)c1 (configuration not stated) [ALBUTEROL] | – |
| – | COc1ccc(CC(C)NCC(O)c2ccc(O)c(NC=O)c2)cc1 (mixture of isomers) [FORMOTEROL] | 4 h |
